## Ab-14 heavy chain CDR variants: yeast mating affinities

All variants were tested on one target, the spike HR2 peptide PDVDLGDISGINAS (SARS-CoV-2).

Ab-14 is the parent antibody, in scFv form: VH, then three GGGGS repeats, then VL. The light chain is unchanged in all variants.
VH: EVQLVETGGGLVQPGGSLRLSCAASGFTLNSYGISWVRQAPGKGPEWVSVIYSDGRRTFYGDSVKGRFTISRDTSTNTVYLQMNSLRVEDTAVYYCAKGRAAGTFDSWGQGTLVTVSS
VL: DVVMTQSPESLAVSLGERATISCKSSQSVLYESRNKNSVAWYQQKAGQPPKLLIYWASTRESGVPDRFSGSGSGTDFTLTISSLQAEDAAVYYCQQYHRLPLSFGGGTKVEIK

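The starting antibody came from a phage panning campaign against this peptide. This is the validation round: designs drawn from the data on random variants, tested in the same kind of assay. Their group label is 14H_En_Gen (En: ensemble of fine-tuned language models; Gen: genetic algorithm). Affinity was read by AlphaSeq, a pooled yeast mating assay with surface-displayed partners. After mating in shaken culture at 30 °C for 16 h, diploids were selected and their barcode pairs sequenced. The ratio of observed to expected reads was calibrated, replicate by replicate, on BCL2-family standards whose Kd was known from biolayer interferometry. The assay was run in six technical replicates.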

The parent's heavy chain CDRs are GFTLNSYGIS, VIYSDGRRTFYGDSVK, GRAAGTFDS; each variant's own CDRs replace them letter for letter.
Numbers give log10(Kd / nM), so 0 is 1 nM and 3 is 1 µM. Smaller is tighter.
Where no diploid with the target was found in that replicate, the entry reads "ND": below detection, most likely a poor binder, though not proof of it.

{"CDR-H1": "GFDLNEYGIS", "CDR-H2": "VIYADGVRTAYADSVK", "CDR-H3": "GEVAGTFDI", "log10 Kd, replicates": "-0.39 -0.48 -0.40 -0.38 -0.51 0.07", "signal with controls": "2 of 18 (1.74)"}
{"CDR-H1": "GFDLNEYGIS", "CDR-H2": "VIYADGMRTAYTDDVK", "CDR-H3": "GNVAGTFDM", "log10 Kd, replicates": "-0.56 -0.60 -0.26 -0.77 -0.24 -0.39", "signal with controls": "0 of 18"}
{"CDR-H1": "GFDLNEYGIS", "CDR-H2": "VIYADGQRTFYADSVK", "CDR-H3": "GQNAGTFDI", "log10 Kd, replicates": "0.06 -0.46 -0.39 -0.33 -0.61 -0.63", "signal with controls": "0 of 18"}
{"CDR-H1": "GFDLNEYGIS", "CDR-H2": "VIYADGKRTAYADSVK", "CDR-H3": "GNVAGTFDK", "log10 Kd, replicates": "-0.44 -0.41 -0.54 -0.55 -0.69 -0.68", "signal with controls": "1 of 18 (1.90)"}
{"CDR-H1": "GFDLNEYGIS", "CDR-H2": "VIYADGMRTAYSDNVK", "CDR-H3": "GENAGTFDI", "log10 Kd, replicates": "1.54 1.41 0.82 0.96 1.14 1.62", "signal with controls": "0 of 18"}
{"CDR-H1": "GFDLNEYGIS", "CDR-H2": "VIYADGMRTAYADSVK", "CDR-H3": "GNHAGTFDL", "log10 Kd, replicates": "-0.23 -0.70 -0.35 -1.06 -0.98 -0.64", "signal with controls": "0 of 18"}
{"CDR-H1": "GFDLDEYGIS", "CDR-H2": "VIYADGRRTAYTDSVK", "CDR-H3": "GNVAGTFDV", "log10 Kd, replicates": "-0.48 -0.32 -0.65 -0.99 -0.67 -0.57", "signal with controls": "1 of 18 (3.71)"}
{"CDR-H1": "GFDLNEYGIS", "CDR-H2": "VIYADGMRTAYQDSVK", "CDR-H3": "GNVAGTFDT", "log10 Kd, replicates": "-0.15 0.03 -0.22 -0.26 -0.56 -0.66", "signal with controls": "0 of 18"}
{"CDR-H1": "GFDLNEYGIS", "CDR-H2": "VIYADGRRTAYADNVK", "CDR-H3": "GNNAGTFDV", "log10 Kd, replicates": "0.40 0.66 0.56 0.42 0.18 0.85", "signal with controls": "0 of 18"}
{"CDR-H1": "GFDLDEYGIS", "CDR-H2": "VIYADGSRTAYADSVK", "CDR-H3": "GNQAGTFDI", "log10 Kd, replicates": "-0.20 0.06 -0.42 -0.32 0.16 -0.09", "signal with controls": "0 of 18"}
{"CDR-H1": "GFDLNEYGIS", "CDR-H2": "VIYADGMRTAYIDSVK", "CDR-H3": "GNNAGTFDL", "log10 Kd, replicates": "0.02 -0.24 -0.28 -0.30 -0.50 0.17", "signal with controls": "0 of 18"}
{"CDR-H1": "GFDLDEYGIS", "CDR-H2": "VIYADGRRTAYADDVK", "CDR-H3": "GEVAGTFDV", "log10 Kd, replicates": "-0.40 -0.60 -0.75 -0.71 -0.49 -0.25", "signal with controls": "0 of 18"}
{"CDR-H1": "GFDLNEYGIS", "CDR-H2": "VIYADGMRTAYSDSVK", "CDR-H3": "GEQAGTFDV", "log10 Kd, replicates": "-0.18 -0.31 -0.34 -0.70 -0.58 -0.53", "signal with controls": "0 of 18"}
{"CDR-H1": "GFDLNEYGIS", "CDR-H2": "VIYADGVRTAYANSVK", "CDR-H3": "GNVAGTFDI", "log10 Kd, replicates": "-0.41 -0.48 -0.63 -0.72 -0.62 -0.55", "signal with controls": "0 of 18"}
{"CDR-H1": "GFDLDEYGIS", "CDR-H2": "VIYADGKRTFYADSVK", "CDR-H3": "GQNAGTFDV", "log10 Kd, replicates": "0.27 -0.78 -0.09 -0.59 -0.79 -0.27", "signal with controls": "0 of 18"}
{"CDR-H1": "GFDLNEYGIS", "CDR-H2": "VIYADGRRTFYADSVK", "CDR-H3": "GNVAGTFDV", "log10 Kd, replicates": "-0.55 -0.66 -0.58 -0.75 -0.49 -0.52", "signal with controls": "0 of 18"}
{"CDR-H1": "GFDLNEYGIS", "CDR-H2": "VIYADGVRKAYADSVK", "CDR-H3": "GNQAGTFDL", "log10 Kd, replicates": "-0.37 0.04 -0.27 -0.26 -0.45 -0.13", "signal with controls": "0 of 18"}
{"CDR-H1": "GFDLNEYGIS", "CDR-H2": "VIYADGSRTVYADSVK", "CDR-H3": "GNVAGTFDI", "log10 Kd, replicates": "-0.25 -0.39 -0.59 -0.76 -0.56 -0.33", "signal with controls": "0 of 18"}
{"CDR-H1": "GFDLNEYGIS", "CDR-H2": "VIYADGMRTVYADSVK", "CDR-H3": "GENAGTFDQ", "log10 Kd, replicates": "-0.25 -0.02 -0.56 -0.39 -0.55 -0.30", "signal with controls": "0 of 18"}
{"CDR-H1": "GFDLNEYGIS", "CDR-H2": "VIYADGMRTAYADNVK", "CDR-H3": "GGNAGTFDI", "log10 Kd, replicates": "1.15 -0.18 0.09 0.70 0.32 0.90", "signal with controls": "0 of 18"}
{"CDR-H1": "GFDLNEYGIS", "CDR-H2": "VIYADGMRTFYADDVK", "CDR-H3": "GNQAGTFDM", "log10 Kd, replicates": "-1.13 -1.03 -1.01 -1.23 -0.71 -0.41", "signal with controls": "1 of 18 (0.84)"}
{"CDR-H1": "GFDLEEYGIS", "CDR-H2": "VIYADGMRTAYTDSVK", "CDR-H3": "GNVAGTFDV", "log10 Kd, replicates": "-0.58 -0.30 -0.56 -0.56 -0.51 -0.44", "signal with controls": "0 of 18"}
{"CDR-H1": "GFDLNEYGIS", "CDR-H2": "VIYADGMRTFYADSVK", "CDR-H3": "GQVAGTFDI", "log10 Kd, replicates": "-0.58 ND -0.31 -0.55 1.26 -0.84", "signal with controls": "0 of 18"}
{"CDR-H1": "GFDLNEYGIS", "CDR-H2": "VIYADGMRTYYADDVK", "CDR-H3": "GNVAGTFDT", "log10 Kd, replicates": "-0.48 -0.25 -0.68 -0.53 -0.58 -0.54", "signal with controls": "2 of 18 (2.60)"}
{"CDR-H1": "GFDLNEYGIS", "CDR-H2": "VIYADGVRTAYADSVK", "CDR-H3": "GGNAGTFDL", "log10 Kd, replicates": "-0.31 -0.10 -0.47 -0.44 0.20 -0.32", "signal with controls": "0 of 18"}
{"CDR-H1": "GFDLNEYGIS", "CDR-H2": "VIYADGMRTFYADDVK", "CDR-H3": "GNNAGTFDI", "log10 Kd, replicates": "0.95 -0.45 0.02 -0.72 0.09 -0.25", "signal with controls": "0 of 18"}
{"CDR-H1": "GFDLNEYGIS", "CDR-H2": "VIYADGMRTAYSDSVK", "CDR-H3": "GQVAGTFDM", "log10 Kd, replicates": "-0.49 -0.56 -0.67 -0.83 -0.66 -0.54", "signal with controls": "0 of 18"}
{"CDR-H1": "GFDLNEYGIS", "CDR-H2": "VIYADGMRTAYADSVK", "CDR-H3": "GEAAGTFDV", "log10 Kd, replicates": "-0.44 0.35 -0.27 -0.52 -0.50 -0.27", "signal with controls": "0 of 18"}
{"CDR-H1": "GFDLNEYGIS", "CDR-H2": "VIYADGVRTAYTDSVK", "CDR-H3": "GQNAGTFDI", "log10 Kd, replicates": "0.14 -0.16 -0.02 0.04 0.25 0.06", "signal with controls": "0 of 18"}
{"CDR-H1": "GFDLNEYGIS", "CDR-H2": "VIYADGMRTAYADNVK", "CDR-H3": "GSNAGTFDI", "log10 Kd, replicates": "-0.56 -0.74 -0.66 -0.78 -0.86 -0.51", "signal with controls": "0 of 18"}
{"CDR-H1": "GFDLNEYGIS", "CDR-H2": "VIYADGMRTAYVDSVK", "CDR-H3": "GNQAGTFDV", "log10 Kd, replicates": "0.66 0.57 0.96 0.80 0.76 0.62", "signal with controls": "1 of 18 (2.35)"}
{"CDR-H1": "GFDLNEYGIS", "CDR-H2": "VIYADGMRTAYSDKVK", "CDR-H3": "GNVAGTFDL", "log10 Kd, replicates": "-0.15 -0.31 -0.57 -0.62 -0.39 -0.55", "signal with controls": "0 of 18"}

Picked from the list: the 5 lowest averages where every replicate gave a value.

{"CDR-H1": "GFDLNEYGIS", "CDR-H2": "VIYADGMRTFYADDVK", "CDR-H3": "GNQAGTFDM", "log10 Kd, replicates": "-1.13 -1.03 -1.01 -1.23 -0.71 -0.41", "signal with controls": "1 of 18 (0.84)"}
{"CDR-H1": "GFDLNEYGIS", "CDR-H2": "VIYADGMRTAYADNVK", "CDR-H3": "GSNAGTFDI", "log10 Kd, replicates": "-0.56 -0.74 -0.66 -0.78 -0.86 -0.51", "signal with controls": "0 of 18"}
{"CDR-H1": "GFDLNEYGIS", "CDR-H2": "VIYADGMRTAYADSVK", "CDR-H3": "GNHAGTFDL", "log10 Kd, replicates": "-0.23 -0.70 -0.35 -1.06 -0.98 -0.64", "signal with controls": "0 of 18"}
{"CDR-H1": "GFDLNEYGIS", "CDR-H2": "VIYADGMRTAYSDSVK", "CDR-H3": "GQVAGTFDM", "log10 Kd, replicates": "-0.49 -0.56 -0.67 -0.83 -0.66 -0.54", "signal with controls": "0 of 18"}
{"CDR-H1": "GFDLDEYGIS", "CDR-H2": "VIYADGRRTAYTDSVK", "CDR-H3": "GNVAGTFDV", "log10 Kd, replicates": "-0.48 -0.32 -0.65 -0.99 -0.67 -0.57", "signal with controls": "1 of 18 (3.71)"}

Values of this round are not directly comparable with the first-round values of the same sequences.
Three control strains display no target. For all heavy chain designs, 1% of the pairings with them gave a signal, with a median of 2.08 and one signal in twenty below 0.84, so weak values seen in few replicates may be background. Also given: how often the same scFv was detected with the empty control strains, with their mean in brackets.
In the paper, a design with two or fewer of six values counts as a poor binder.

Reference: Li et al. 2023, doi:10.1038/s41467-023-39022-2. File: FLAb, binding data.